From patent publication US6794396B2, “Substituted pyridines useful for inhibiting cholesteryl ester transfer protein activity” (Pharmacia Corporation, priority 1998, dated 2004)

Amino acid sequences for entries named in this document (tags omitted). Residues count along the entry.
UniProt P11597, 18-493 limits assumed: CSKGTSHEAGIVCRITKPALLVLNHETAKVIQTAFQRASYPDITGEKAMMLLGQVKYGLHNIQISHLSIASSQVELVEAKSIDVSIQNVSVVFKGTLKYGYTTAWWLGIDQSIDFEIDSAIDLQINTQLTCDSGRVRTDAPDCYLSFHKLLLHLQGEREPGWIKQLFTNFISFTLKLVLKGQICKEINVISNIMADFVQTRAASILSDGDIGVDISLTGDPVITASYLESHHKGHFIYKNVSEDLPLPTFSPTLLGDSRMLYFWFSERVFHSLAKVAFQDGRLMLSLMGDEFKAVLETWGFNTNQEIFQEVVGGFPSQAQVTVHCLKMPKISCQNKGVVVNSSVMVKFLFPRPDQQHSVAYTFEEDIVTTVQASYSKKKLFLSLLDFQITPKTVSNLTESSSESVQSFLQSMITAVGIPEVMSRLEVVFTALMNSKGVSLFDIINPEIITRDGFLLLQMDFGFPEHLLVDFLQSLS

Each compound was assayed against CETP (Homo sapiens, UniProt P11597) (assay: CETP activity in vitro: transfer of [3H]CE from HDL donor to LDL acceptor particles). Details: read-out: IC50(μm); 50% inhibition of [3H]CE transfer from HDL to LDL, 2 hours at 37° C.
Assay type: biochemical

Row | SMILES | IC50
1 | COC(=O)c1c(C(F)F)nc(C(F)(F)F)c(C(=O)c2cnc(Cl)s2)c1CC(C)C | 80 µM
2 | COC(=O)c1c(C(F)F)nc(C(F)(F)F)c(C(OC)c2cccs2)c1CC(C)C (centres unmarked) | 50 µM
3 | COC(=O)c1c(C(F)F)nc(C(F)(F)F)c(N=C2SCCC2C)c1CC(C)C (centres unmarked) | 50 µM
4 | CCOC(=O)c1c(C(F)(F)F)nc(C(F)(F)F)c(C)c1OC(=O)c1ccc(C(F)(F)F)cc1 | 25 µM
5 | COC(=O)c1c(C(F)F)nc(C(F)(F)F)c(C(C#N)=C2OCCO2)c1CC1CC1 | 50 µM
6 | COC(=O)c1c(C(F)F)nc(C(F)(F)F)c(-c2cc(C)sn2)c1CC(C)C | 50 µM
7 | CCOC(=O)c1c(C(F)F)nc(C(F)(F)F)c(C2=NO[C@H](Cl)[C@H]2Cl)c1CC(C)C (relative stereo) | 30 µM
8 | COC(=O)c1c(C(F)F)nc(C(F)(F)F)c(N=C2CSCCS2)c1CC(C)C | 10 µM
9 | CCc1c(C(=O)OC(C)C)c(C(F)(F)F)nc(C(F)(F)F)c1C(=O)OC(C)C | 90 µM
10 | CCOC(=O)c1c(C(F)(F)F)nc(C(F)F)c(C(=O)OC)c1SC1=NCCS1 | 6 µM
11 | COC(=O)c1c(C(F)(F)F)nc(C(F)F)c(C(=O)NCc2ccc(Cl)cc2)c1CC(C)C | 70 µM
